Results: ChEMBL document CHEMBL1126247, “Iodoaminopotentidine and related compounds: a new class of ligands with high affinity and selectivity for the histamine H2 receptor” (J Med Chem, 1992)

The chains behind the UniProt entries cited, without tags or fusion partners.
UniProt P47747, whole entry: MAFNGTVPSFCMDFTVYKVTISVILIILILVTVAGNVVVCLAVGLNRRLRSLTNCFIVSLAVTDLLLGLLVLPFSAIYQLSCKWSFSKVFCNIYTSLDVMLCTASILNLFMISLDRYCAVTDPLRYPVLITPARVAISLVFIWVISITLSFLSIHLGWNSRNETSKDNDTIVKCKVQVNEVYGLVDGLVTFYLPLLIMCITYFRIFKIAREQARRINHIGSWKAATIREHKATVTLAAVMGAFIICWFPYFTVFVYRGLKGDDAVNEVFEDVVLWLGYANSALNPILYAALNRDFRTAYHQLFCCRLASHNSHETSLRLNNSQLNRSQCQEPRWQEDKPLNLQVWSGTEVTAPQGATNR

Legend:
Histamine H2 receptor = Histamine H2 receptor (Cavia porcellus, UniProt P47747); assay: Inhibition of [125I]APT binding to H2 receptors in guinea pig cerebral membranes.; type: cell membranes
Outline: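 Striatal membranes from male Hartley guinea pigs (200-300 g) in 50 mM sodium/potassium phosphate, pH 7.5, with 0.1% gelatin. Membranes incubated with 125I-APT 120 min at 25 °C, in triplicate. Stopped with cold buffer containing 0.1% BSA, then filtered on polyethylenimine-treated glass-fiber filters and γ-counted. Nonspecific binding defined with 1 μM tiotidine. Azido compounds handled under dim light.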

[1] = Inhibition of the positive chronotropic response (H2-antagonism) of guinea pig right atrium relative to cimetidine.; type: functional, Cavia porcellus, Cardiac atrium

| Structure (SMILES) | Ki (Histamine H2 receptor) | Relative potency [1] |
| --- | --- | --- |
| CN/C(=N/CCSCc1nc[nH]c1C)NC#N [CIMETIDINE] | 0.302 µM |  |
| C/N=C(/NC#N)NCCSCc1csc(NC(=N)N)n1 [TIOTIDINE] | 0.00562 µM | 2512% |
